Measurements as given in ChEMBL document CHEMBL3286155, “Tricyclic pyrazoles. Part 6. Benzofuro[3,2-c]pyrazole: a versatile architecture for CB2 selective ligands” (Eur J Med Chem, 2014).

The chains behind the UniProt entries cited, without tags or fusion partners.
UniProt P21554, whole entry: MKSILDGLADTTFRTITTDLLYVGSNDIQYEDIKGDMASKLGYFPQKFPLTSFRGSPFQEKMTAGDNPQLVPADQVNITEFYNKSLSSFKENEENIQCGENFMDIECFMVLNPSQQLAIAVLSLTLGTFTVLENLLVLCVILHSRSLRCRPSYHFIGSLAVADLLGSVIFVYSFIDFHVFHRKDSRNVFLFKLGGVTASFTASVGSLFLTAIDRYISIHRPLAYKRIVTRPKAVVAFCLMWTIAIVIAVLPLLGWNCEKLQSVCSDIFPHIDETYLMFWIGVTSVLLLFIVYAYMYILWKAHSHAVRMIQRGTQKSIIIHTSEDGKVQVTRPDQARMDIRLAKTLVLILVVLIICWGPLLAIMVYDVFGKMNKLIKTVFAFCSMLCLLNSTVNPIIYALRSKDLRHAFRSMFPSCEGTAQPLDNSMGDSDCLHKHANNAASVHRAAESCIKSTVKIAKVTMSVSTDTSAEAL

Molecular target: Cannabinoid receptor 1 (Homo sapiens, UniProt P21554)

Question: With `Cc1ccc(Cn2nc(C(=O)N[C@@H]3C(C)(C)[C@@H]4CC[C@@]3(C)C4)cc2-c2ccc(Cl)c(C)c2)cc1` [SR-144528] as the compound, how does the Ki read?
Answer: Its Ki is 70 nM.
